This is a selection; strong and weak results do not stand in their true shares. Records with an inconclusive call do not appear. Activity calls are given as the source filed them. The call rests on the fitted dose curve; in most records, active means well fitted inhibition curve with a large enough effect; inconclusive means small, poorly fitted or top-dose-only effect; inactive means flat fitted curve, though single readings scatter.
Target: Dual specificity protein kinase CLK4 (Homo sapiens) (UniProt Q9HAZ1)
Experiment: Confirmation Assay for Inhibitors of Clk4 (Kinase-Glo Assay): KU probe
Details: recombinant Clk4, Kinase-Glo ATP luminescence
Procedure: NIH Molecular Libraries Probe Production Centers Network [MLPCN] NIH Chemical Genomics Center [NCGC] MLPCN Grant: 1R03MH084827-01 Assay Submitter (PI): Tom Misteli NCGC Assay Overview: Clk4 (Invitrogen, cat# PV3839) was assayed using ATP and the RS repeat peptide (AnaSpec cat # 61722) as substrates. Following the Clk4 reaction, the remaining ATP levels were detected using Promega Kinase-Glo technology wherein the remaining ATP from the kinase reaction is detected using Ultra-Glo luciferase and D-luciferin which generates a bioluminescence signal from the ATP. The positive control for the assay was TG003 (Sigma-Aldrich, cat# 300801-52-9) which has been described as an inhibitor of Clk 4[1].
NCGC Assay Protocol Summary: Two uL/well of substrate-buffer solution (100 uM RS peptide, 1 uM ATP, 25 mM Tris pH7.5, 10 mM MgCl2, 0.5 mM EGTA, 2.5 mM DTT, 0.01% Triton X-100 final concentration) was dispensed into 1536-well, assay plates (Greiner, solid white medium-binding plates) with Aurora Discovery BioRAPTR Flying Reagent Dispenser (FRD; Beckton-Dickenson). Using a Kalypsys pin tool equipped with a 1536-pin tool, 23 nL of compound solution was transferred to the assay plate. […] Luminescence was detected with the ViewLux plate reader (Perkin Elmer, Waltham, MA) after 5 min incubation using a 5 second exposure time and 2x binning.

Sequences of proteins named here, by UniProt entry; tags and fusion partners are left off. A change or cut given only in a name is not applied to a line headed by its entry.
UniProt Q9HAZ1: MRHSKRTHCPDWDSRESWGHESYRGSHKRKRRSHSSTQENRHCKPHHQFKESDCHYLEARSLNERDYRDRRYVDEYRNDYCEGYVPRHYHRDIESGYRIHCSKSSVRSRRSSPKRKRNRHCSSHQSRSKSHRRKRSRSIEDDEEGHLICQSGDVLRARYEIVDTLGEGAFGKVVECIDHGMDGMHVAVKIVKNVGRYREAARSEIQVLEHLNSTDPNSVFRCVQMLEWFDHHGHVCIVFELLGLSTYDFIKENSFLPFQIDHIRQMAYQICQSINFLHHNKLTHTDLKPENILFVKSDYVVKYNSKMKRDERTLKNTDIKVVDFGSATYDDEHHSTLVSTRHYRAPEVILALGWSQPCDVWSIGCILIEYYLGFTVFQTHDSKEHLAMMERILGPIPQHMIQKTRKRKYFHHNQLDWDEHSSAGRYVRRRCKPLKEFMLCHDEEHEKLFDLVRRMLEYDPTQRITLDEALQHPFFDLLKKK

Compound | Potency
c1nc(NCC2CCCC2)c2cc(-c3ccc4c(c3)OCO4)ccc2n1 | active: 0.0519 µM
c1cncc(CNc2ncncc2-c2ccc3c(c2)OCO3)c1 | active: 9.23 µM
